Consider two molecules from patent US10414740B2, “Glutaminase inhibitors and method of use” (Agios Pharmaceuticals, Inc., priority 2012, dated 2019).

In this test the target is T1, glutaminase (GAC) (Homo sapiens, UniProt O94925).
T1 sequence (O94925 55-598 isoform O94925-3 limits assumed): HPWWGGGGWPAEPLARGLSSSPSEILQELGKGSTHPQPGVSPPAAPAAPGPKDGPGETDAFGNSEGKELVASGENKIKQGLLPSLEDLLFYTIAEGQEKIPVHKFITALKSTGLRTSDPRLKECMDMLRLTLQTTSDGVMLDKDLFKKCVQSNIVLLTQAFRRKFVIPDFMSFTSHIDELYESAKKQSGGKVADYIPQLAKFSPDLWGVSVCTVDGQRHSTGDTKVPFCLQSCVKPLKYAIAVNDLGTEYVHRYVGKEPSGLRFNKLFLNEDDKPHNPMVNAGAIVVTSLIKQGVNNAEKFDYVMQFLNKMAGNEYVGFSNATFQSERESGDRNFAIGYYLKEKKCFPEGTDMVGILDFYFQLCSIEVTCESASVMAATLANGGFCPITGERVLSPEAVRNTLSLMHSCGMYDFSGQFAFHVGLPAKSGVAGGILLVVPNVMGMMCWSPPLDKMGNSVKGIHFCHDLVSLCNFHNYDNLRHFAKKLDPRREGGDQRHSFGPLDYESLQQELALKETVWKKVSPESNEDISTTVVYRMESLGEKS
Put plainly: glutaminase coupled endpoint assay (Example A). The test is classed as biochemical. The following applies: inhibition of glutaminase; IC50 tested in an assay of Example A or Example B. The procedure: In this example, the enzymatic activity of glutaminase is measured through a coupled endpoint assay. […] The glutamate produced is converted to 2-OG by a kinetic excess of glutamate dehydrogenase. […] However, a kinetic excess of the third coupling enzyme, diaphorase, recycles NAD from NADH to keep the NAD concentration constant during the timecourse of the assay. Diaphorase, also supplied in kinetic excess, oxidizes NADH produced by GDH back to NAD with the concomitant reduction of rezasurin to the highly fluorescent resorufin. […] A reduction in the signal indicates inhibition of some component of the coupled enzyme system. Prospective hits are counterscreened against GDH/diaphorase alone to remove hits to the coupling enzyme system in a second assay.
2. […] Add 1 μl a compound in 100% DMSO 2. Add 40 μl of Enzyme Mix and incubate for 60 minute at room temperature 3. Add 10 μl of Substrate Mix to start reaction 4.

Consider `Cc1cccc(CC(=O)Nc2nnc(CCCCc3nnc(NC(=O)Cc4cccc(C)c4)s3)s2)c1` [Compound 120, N,N′-(5,5′-(butane-1,4-diyl)bis(1,3,4-thiadiazole-5,2-diyl))bis(2-m-tolylacetamide)], for which the half-inhibitory concentration (IC50) was below 100 nM.

Molecule `O=C(Cc1ccccc1Cl)Nc1nnc(CCCCc2nnc(NC(=O)Cc3ccccc3Cl)s2)s1` [Compound 86, N,N′-(5,5′-(butane-1,4-diyl)bis(1,3,4-thiadiazole-5,2-diyl))bis(2-(2-chlorophenyl)acetamide)] had an IC50 below 100 nM.

Broadly, the IC50 is the concentration that gives 50% inhibition.
